These results are taken from publication PMC9239047 (mBio, 2022).

This assay has as its system USA300 MRSA (strain LAC). In words: Murine dermonecrosis model. The assay is classed as in vivo, BALB/c mice.

With `C[C@@H]1NC(=O)[C@@H](NC(=O)[C@@H]2CCCN2C(=O)[C@H](CO)NC(=O)[C@H](Cc2ccc(O)cc2)NC(=O)[C@@H](N)CO)CSC(=O)[C@H](Cc2ccccc2)NC(=O)[C@H](Cc2ccc(O)cc2)NC(=O)[C@H]([C@@H](C)O)NC1=O` [AIP-II], the weight change result (50 μg synthetic AIP-II, intradermal with MRSA, vs vehicle, not statistically significant) is “tended to lose less weight”. Besides, under “50-μg dose of synthetic AIP-II, after 5 days of infection”, the lesion severity result is “closely resembled that of mice administered an agr mutant”.
